The numbers were not newly measured in PubChem BioAssay AID977611 (Shanghai Institute of Organic Chemistry, 2012), which cites them from elsewhere.

SMILES strings stand for the structures.

Assay in all cases: PubChem AID 977611
In series [1] the target is Protease(Q7K/L10I/G48V/I54V/V64I/V82A). As to conditions: PDB protein-ligand complexes, literature Kd, protein: Protease(Q7K/L10I/G48V/I54V/V64I/V82A).
Series [2] deals with Protease(Q7K, V64I mutation). As to conditions: PDB protein-ligand complexes, literature Kd; protein: Protease(Q7K, V64I mutation); PDB entry 3EKX.
The target in the next series is Protease(Q7K/V82T/I84V). The note with it: PDB protein-ligand complexes, literature Kd; protein: Protease(Q7K/V82T/I84V); PDB entry 3EL9.
In series [3] the target is Protease(Q7K,V64I mutation). The note with it: PDB protein-ligand complexes, literature Kd, protein: Protease(Q7K,V64I mutation).
Series [4] deals with Protease(Q7K/K41R/V64I/V82T/I84V). The note with it: PDB protein-ligand complexes, literature Kd; protein: Protease(Q7K/K41R/V64I/V82T/I84V); PDB entry 3EL5.
Another series has as its target Protease(Q7K mutation). The note with it: PDB protein-ligand complexes, literature Kd; protein: Protease(Q7K mutation); PDB entry 3EL1.
The target of series [5] is Protease(Q7K/V64I/V82T/I84V). The note with it: PDB protein-ligand complexes, literature Kd; protein: Protease(Q7K/V64I/V82T/I84V); PDB entry 3EL4.
Series [6] has as its target Protease(L10I/G48V/I54V/V64I/V82A). As to conditions: PDB protein-ligand complexes, literature Kd; protein: Protease(L10I/G48V/I54V/V64I/V82A); PDB entry 3EKP.

Broadly, the Kd is the equilibrium constant for the complex coming apart. For `CC1C(=O)C=CC=C1C(=O)N[C@@H](CSc1ccccc1)[C@H](O)CN1C[C@H]2CCCC[C@H]2C[C@H]1C(=O)NC(C)(C)C` (stereo partly specified), the dissociation constant Kd was 34.1 nM in series [1] (PDB entry 3EL0) and 0.39 nM in series [2].

On to `COC(=O)N[C@H](C(=O)N[C@@H](Cc1ccccc1)[C@@H](O)CN(Cc1ccc(-c2ccccn2)cc1)NC(=O)[C@@H](NC(=O)OC)C(C)(C)C)C(C)(C)C`, for which the Kd is 4 nM at Protease(Q7K/V82T/I84V), 10.9 nM in series [1] (PDB entry 3EKW) and 0.23 nM in series [3] (PDB entry 3EKY).

As to `Cc1c(O)cccc1C(=O)N[C@@H](CSc1ccccc1)[C@H](O)CN1C[C@H]2CCCC[C@H]2C[C@H]1C(=O)NC(C)(C)C`, in series [4], the dissociation constant (Kd) is 18.9 nM.

For the molecule `COC(=O)NC(C(=O)N[C@@H](Cc1ccccc1)[C@@H](O)CN(Cc1ccc(-c2ccccn2)cc1)NC(=O)[C@@H](NC(=O)OC)C(C)(C)C)C(C)(C)C` (stereo partly specified), at Protease(Q7K mutation), the Kd was 0.23 nM.

Take `CC(C)(C)NC(=O)[C@@H]1C[C@@H]2CCCC[C@@H]2CN1C[C@@H](O)[C@H](Cc1ccccc1)NC(=O)[C@H](CC(N)=O)NC(=O)c1ccc2ccccc2n1`: the Kd is 67.4 nM in series [5] and 176 nM in series [1] (PDB entry 3EKQ).

On to `CC(C)CN(C[C@@H](O)[C@H](Cc1ccccc1)NC(=O)O[C@H]1CCOC1)S(=O)(=O)c1ccc(N)cc1`, for which the values for the Kd in series [3] (PDB entry 3EKV) and in series [6] were 0.39 nM and 1.3 nM, respectively.
